Patent publication US8877802B2 (priority 2005, dated 2014)

What was measured:
[1] = test system: DA-depleted DAT-KO (DDD) mice; settings: high doses, catalepsy, grasping and akinesia tests
[2] = test system: DA-depleted DAT-KO (DDD) mice; assay: Locomotor activity (forward locomotion, distance traveled) in DDD mice; settings: NE- and 5-HT-related drugs, data not shown

Compound	manifestations of akinesia and rigidity [1]	effect in tests of forward locomotion or akinesia and rigidity [2]
CCNC(C)Cc1ccc2c(c1)OCO2.Cl (stereo not drawn)	effective in reducing manifestations of akinesia and rigidity	
(6)-6-hydroxy-3,4-methylenedioxyamphetamine HCl	effective in reducing manifestations of akinesia and rigidity	
b-ethyltryptamine		none were effective
